Assays:
[1] = molecular target: T1, human c-MET (human, UniProt P08581 25-1390); assay: cell-based or functional assay
[2] = molecular target: T1, human c-MET; assay: flow cytometry on MKN45 cells (highly express c-MET)
Excerpt: A flow cytometer (Beckman, model Cytoflex) was used to detect the interaction between anti-human EGFR/c-MET bispecific antibodies and their conjugates and human gastric cancer cells MKN45 (Nanjing Cobioer Biosciences) and human gastric cancer cells overexpressing human EGFR MKN45-EGFR (Kelun-Biotech), human lung squamous cell carcinoma EBC-1 (Nanjing Cobioer Biosciences), human lung squamous cell carcinoma EBC-1-EGFR overexpressing human EGFR (Kelun-Biotech), human non-small cell lung cancer cell HCC827 (ATCC™), and human epidermal squamous cell carcinoma cell A431 (Nanjing Cobioer Biosciences). The protocol was as follows.
The adherent cells were digested with Trypsin-EDTA solution (0.25%) (Shanghai BasalMedia) and the cell density adjusted to 4.0×10⁶ per mL. The cells were washed twice with 1% BSA and resuspended in 1% BSA solution. Then 50 μL cell suspension was added to each well of a 96-well plate (the number of cells was 2×10⁵ per well). The antibody and its conjugate were diluted with 1% BSA (final concentration 10 µg/mL, 3-fold gradient dilution, a total of 11 concentration points). Then 50 μL of the diluted antibody and ADC were added to the wells of the 96-well plate and the plate was incubated at 4° C. for 60 minutes. […]

B1: ADC 38B-A-05 (bispecific antibody, human IgG1, kappa, L234A L235A)
light: not shown
heavy: not shown
chain: DIQMTQSPSSLSASVGDRVTITCKSSQSLLYTSSQKNYLAWYQQKPGKAPKLLIYWASTRESGVPSRFSGSGSGTDFTLTISSLQPEDFATYYCQQYYAYPWTFGQGTKVEIKGGGGSGGGGSGGGGSEVQLVESGGGLVQPGGSLRLSCAASGYTFTSYWLHWVRQAPGKGLEWVGMIDPSNSDTRFNPNFKDRFTISADTSKNTAYLQMNSLRAEDTAVYYCATYRSYVTPLDYWGQGTLVTVSSGGGGDKTHTCPPCPAPEAAGGPSVFLFPPKPKDTLMISRTPEVTCVVVDVSHEDPEVKFNWYVDGVEVHNAKTKPREEQYNSTYRVVSVLTVLHQDWLNGKEYKCKVSNKALAAPIEKTISKAKGQPREPQVCTLPPSRDELTKNQVSLSCAVKGFYPSDIAVEWESNGQPENNYKTTPPVLDSDGSFFLVSKLTVDKSRWQQGNVFSCSVMHEALHNHYTQKSLSLSPGK
modifications: linker-payload A-05 on reduced Cys sulfhydryls (sites not given); DAR of the whole ADC approximately 6
**Q.** How did the “IC50, in vitro cell killing (CCK8) on MKN45 cells” value [1] turn out when B1 was run?
**A.** 0.41 nM

B2: ADC 38B-A-14 (bispecific antibody, human IgG1, kappa, L234A L235A)
light: not shown
heavy: not shown
chain: DIQMTQSPSSLSASVGDRVTITCKSSQSLLYTSSQKNYLAWYQQKPGKAPKLLIYWASTRESGVPSRFSGSGSGTDFTLTISSLQPEDFATYYCQQYYAYPWTFGQGTKVEIKGGGGSGGGGSGGGGSEVQLVESGGGLVQPGGSLRLSCAASGYTFTSYWLHWVRQAPGKGLEWVGMIDPSNSDTRFNPNFKDRFTISADTSKNTAYLQMNSLRAEDTAVYYCATYRSYVTPLDYWGQGTLVTVSSGGGGDKTHTCPPCPAPEAAGGPSVFLFPPKPKDTLMISRTPEVTCVVVDVSHEDPEVKFNWYVDGVEVHNAKTKPREEQYNSTYRVVSVLTVLHQDWLNGKEYKCKVSNKALAAPIEKTISKAKGQPREPQVCTLPPSRDELTKNQVSLSCAVKGFYPSDIAVEWESNGQPENNYKTTPPVLDSDGSFFLVSKLTVDKSRWQQGNVFSCSVMHEALHNHYTQKSLSLSPGK
modifications: linker-payload A-14 on reduced Cys sulfhydryls (sites not given); DAR of the whole ADC approximately 6
**Q.** Which EC50 [2] does the source give for B2 here?
**A.** 0.68 nM

From patent publication US20250161474A1 (SICHUAN KELUN BIOTECH BIOPHARMACEUTICAL, published 2025)
